# In PubChem BioAssay AID588683 (Broad Institute, 2011):
# Protein sequences, listed by entry. Tags and fused reporters are not part of them.
# UniProt Q14145, whole entry, looked up: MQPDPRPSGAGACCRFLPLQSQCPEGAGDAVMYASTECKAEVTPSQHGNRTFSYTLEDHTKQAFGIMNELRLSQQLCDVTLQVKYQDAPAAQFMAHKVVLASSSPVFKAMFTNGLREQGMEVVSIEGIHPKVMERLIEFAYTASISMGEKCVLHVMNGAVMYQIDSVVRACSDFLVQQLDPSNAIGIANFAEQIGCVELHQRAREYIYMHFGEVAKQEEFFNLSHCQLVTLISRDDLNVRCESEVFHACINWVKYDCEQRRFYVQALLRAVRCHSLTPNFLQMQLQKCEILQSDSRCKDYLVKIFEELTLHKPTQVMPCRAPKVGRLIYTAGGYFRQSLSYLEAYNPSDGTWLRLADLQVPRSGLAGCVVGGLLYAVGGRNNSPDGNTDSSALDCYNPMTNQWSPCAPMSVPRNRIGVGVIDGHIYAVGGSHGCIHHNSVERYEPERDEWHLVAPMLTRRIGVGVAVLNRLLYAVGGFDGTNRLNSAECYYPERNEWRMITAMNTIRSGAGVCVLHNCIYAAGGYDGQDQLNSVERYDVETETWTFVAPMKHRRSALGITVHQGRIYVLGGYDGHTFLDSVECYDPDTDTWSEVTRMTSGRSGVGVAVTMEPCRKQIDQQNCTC
# UniProt Q16236, whole entry, looked up: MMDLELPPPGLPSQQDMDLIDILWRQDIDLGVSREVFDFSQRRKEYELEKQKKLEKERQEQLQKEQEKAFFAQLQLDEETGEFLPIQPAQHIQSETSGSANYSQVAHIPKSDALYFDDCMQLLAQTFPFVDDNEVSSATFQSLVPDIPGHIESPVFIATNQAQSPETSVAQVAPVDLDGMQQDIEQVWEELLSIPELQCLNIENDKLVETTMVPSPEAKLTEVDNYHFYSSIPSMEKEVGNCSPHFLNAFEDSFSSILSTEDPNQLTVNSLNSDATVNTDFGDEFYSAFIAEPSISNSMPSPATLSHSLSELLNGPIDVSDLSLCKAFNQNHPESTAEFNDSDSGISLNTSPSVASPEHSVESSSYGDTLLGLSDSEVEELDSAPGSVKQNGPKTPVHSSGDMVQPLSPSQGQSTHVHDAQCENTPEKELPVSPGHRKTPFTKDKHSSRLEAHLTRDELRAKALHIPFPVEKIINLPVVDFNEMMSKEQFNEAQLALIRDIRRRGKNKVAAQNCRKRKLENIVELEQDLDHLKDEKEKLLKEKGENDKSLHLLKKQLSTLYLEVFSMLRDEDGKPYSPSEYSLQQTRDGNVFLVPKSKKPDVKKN
# The entries are a selection whose mix differs from that of the whole data set. Entries with a potency or affinity are not part of this list. Activity calls are given as the source filed them. How the calls were made is not given here.
# Molecular target: Kelch-like ECH-associated protein 1 (Homo sapiens) + Nuclear factor erythroid 2-related factor 2 (Homo sapiens) (UniProt Q14145+Q16236)
# Test: Keap1-Nrf2 protein-protein interaction inhibitors, dose response, biochemical, fluorescence polarization, cherry-picked samples (AID 588683);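 further: Kelch domain of Keap1 binding a fluorescein-labelled 9mer Nrf2 peptide; more negative means stronger inhibition of peptide binding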
# Settings: Keap1/Nrf2 peptide fluorescence polarization, plate reader; at 26 µM (top of the series)
smiles,measurement,value
CCCN1CCC(Nc2cc(OC)cc(OC)c2)CC1,"activity change, negative = inhibition",inactive: -9.72%
